Biological target: T1, hGLP1 receptor (Homo sapiens, UniProt P43220)
T1 construct: expressed in transfected cells; host or cells: HEK (human embryonic kidney) cells co-expressing hGLP1 receptor and a CRE-Luciferase construct
Assay: cAMP HTRF agonist assay in HEK cells co-expressing the hGLP1 receptor and CRE-Luciferase construct
Assay type: cell-based
Conditions: Table 6; cell annotated (0% albumin)

Amino acid sequences for entries named in this document (tags omitted). Residues count along the entry.
UniProt P43220, 24-463: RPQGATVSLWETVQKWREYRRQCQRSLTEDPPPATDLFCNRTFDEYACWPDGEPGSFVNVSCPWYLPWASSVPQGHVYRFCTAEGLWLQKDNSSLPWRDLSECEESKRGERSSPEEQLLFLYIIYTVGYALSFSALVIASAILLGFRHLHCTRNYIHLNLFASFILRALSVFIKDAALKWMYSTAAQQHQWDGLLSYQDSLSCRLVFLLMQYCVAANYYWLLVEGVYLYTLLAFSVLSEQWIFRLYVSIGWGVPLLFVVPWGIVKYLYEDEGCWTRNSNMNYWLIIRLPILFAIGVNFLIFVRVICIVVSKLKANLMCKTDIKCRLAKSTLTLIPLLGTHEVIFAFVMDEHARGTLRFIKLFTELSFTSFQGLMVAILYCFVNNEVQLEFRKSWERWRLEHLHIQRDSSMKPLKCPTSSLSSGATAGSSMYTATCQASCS

Q: Which EC50 does the source give for `C[C@@H](O)[C@H](NC(=O)CNC(=O)[C@H](CCC(=O)O)NC(=O)[C@]1(C)CCCN1C(=O)[C@@H](N)Cc1c[nH]cn1)C(=O)N[C@@](C)(Cc1ccccc1F)C(=O)N[C@H](C(=O)N[C@@H](CO)C(=O)N[C@@H](CC(=O)O)C(=O)N[C@](C)(Cc1ccc(-c2ccccc2)cc1)C(=O)N[C@@H](Cc1ccc(-c2ccccc2)cc1)C(N)=O)[C@@H](C)O` [4-72-i2, H2N-His-α-MePro-Glu-Gly-Thr-α-MePhe(2F)-Thr-Ser-Asp-α-MeBip-Bip-C(O)NH2] here?
A: The EC50 was over 1 nM.
